Reference: ChEMBL document CHEMBL5038633, “Development of ProTx-II Analogues as Highly Selective Peptide Blockers of Nav1.7 for the Treatment of Pain” (J Med Chem, 2022)

The chains behind the UniProt entries cited, without tags or fusion partners.
UniProt Q15858, whole entry: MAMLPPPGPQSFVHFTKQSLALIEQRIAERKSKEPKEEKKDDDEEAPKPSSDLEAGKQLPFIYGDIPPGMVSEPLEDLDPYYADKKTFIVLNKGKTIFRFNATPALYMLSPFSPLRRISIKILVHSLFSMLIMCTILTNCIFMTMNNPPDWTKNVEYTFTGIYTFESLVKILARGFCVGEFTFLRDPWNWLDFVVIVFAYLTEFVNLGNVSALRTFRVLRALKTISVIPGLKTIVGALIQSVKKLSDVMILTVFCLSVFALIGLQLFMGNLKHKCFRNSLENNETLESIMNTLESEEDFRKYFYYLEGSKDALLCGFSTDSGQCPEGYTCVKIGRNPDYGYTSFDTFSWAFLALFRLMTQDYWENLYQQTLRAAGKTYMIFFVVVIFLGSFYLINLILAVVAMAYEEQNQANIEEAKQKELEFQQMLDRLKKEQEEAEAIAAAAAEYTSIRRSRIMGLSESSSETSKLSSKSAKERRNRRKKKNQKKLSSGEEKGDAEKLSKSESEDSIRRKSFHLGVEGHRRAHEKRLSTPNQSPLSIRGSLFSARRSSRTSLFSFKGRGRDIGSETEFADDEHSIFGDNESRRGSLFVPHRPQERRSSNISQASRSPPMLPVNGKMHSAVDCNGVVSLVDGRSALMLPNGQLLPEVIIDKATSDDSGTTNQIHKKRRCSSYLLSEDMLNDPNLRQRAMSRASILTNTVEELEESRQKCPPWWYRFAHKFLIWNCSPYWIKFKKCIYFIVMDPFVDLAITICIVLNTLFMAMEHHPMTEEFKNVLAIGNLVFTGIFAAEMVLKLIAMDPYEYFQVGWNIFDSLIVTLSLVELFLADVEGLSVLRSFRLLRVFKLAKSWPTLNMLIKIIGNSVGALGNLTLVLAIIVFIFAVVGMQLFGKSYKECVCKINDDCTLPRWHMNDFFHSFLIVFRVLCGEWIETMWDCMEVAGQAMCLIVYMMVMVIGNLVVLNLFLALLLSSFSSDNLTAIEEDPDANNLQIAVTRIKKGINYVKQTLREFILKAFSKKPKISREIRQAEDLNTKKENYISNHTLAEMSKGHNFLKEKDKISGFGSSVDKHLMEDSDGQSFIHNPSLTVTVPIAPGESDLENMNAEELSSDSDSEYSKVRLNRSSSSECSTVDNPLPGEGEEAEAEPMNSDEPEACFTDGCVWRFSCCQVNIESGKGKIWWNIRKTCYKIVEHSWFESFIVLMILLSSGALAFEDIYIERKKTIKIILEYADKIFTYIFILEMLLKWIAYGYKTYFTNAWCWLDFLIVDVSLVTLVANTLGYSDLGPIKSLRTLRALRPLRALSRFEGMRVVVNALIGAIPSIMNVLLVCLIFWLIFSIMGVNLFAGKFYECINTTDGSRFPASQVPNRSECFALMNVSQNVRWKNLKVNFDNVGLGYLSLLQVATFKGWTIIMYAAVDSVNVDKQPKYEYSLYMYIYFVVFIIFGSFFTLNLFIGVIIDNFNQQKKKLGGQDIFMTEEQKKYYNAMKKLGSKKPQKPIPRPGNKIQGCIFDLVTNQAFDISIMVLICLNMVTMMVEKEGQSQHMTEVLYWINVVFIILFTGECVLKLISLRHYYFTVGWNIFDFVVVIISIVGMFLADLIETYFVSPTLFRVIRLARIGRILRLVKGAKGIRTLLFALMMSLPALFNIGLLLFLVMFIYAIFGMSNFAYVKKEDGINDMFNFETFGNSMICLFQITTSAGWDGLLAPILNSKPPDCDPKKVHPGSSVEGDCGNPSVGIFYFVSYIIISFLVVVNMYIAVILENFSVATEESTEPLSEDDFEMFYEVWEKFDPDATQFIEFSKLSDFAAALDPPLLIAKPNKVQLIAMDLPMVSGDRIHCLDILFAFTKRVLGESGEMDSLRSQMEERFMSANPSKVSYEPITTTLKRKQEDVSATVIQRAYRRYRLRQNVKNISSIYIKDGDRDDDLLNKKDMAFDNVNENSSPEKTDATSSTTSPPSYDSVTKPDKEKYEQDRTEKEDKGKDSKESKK

How the values were obtained:
[1] = target: T1, Sodium channel protein type 9 subunit alpha (Homo sapiens, UniProt Q15858); assay: Inhibition of human Nav1.7 stably expressed in cells with train pulses to -20 mV at 0.1 Hz and holding potential of -95 mV by Qube-automated patch clamp assay; format: cell-based
[2] = target: T1, Sodium channel protein type 9 subunit alpha; assay: Inhibition of human Nav1.7 stably expressed in cells with train pulses to -20 mV at 0.1 Hz and holding potential of -95 mV by whole-cell QPatch HT assay; format: cell-based

Compound: CSCC[C@@H]1NC(=O)CNC(=O)[C@H](CCC(=O)O)NC(=O)[C@@H]2CSSC[C@H](NC(=O)[C@@H](N)Cc3ccc(O)cc3)C(=O)N[C@@H](CCC(N)=O)C(=O)N[C@@H](CCCCN)C(=O)N[C@@H](Cc3c[nH]c4ccccc34)C(=O)N[C@@H](CCSC)C(=O)N[C@@H](Cc3c[nH]c4ccccc34)C(=O)N[C@@H]([C@@H](C)O)C(=O)N[C@H]3CSSC[C@H](NC(=O)[C@H](C(C)C)NC1=O)C(=O)N[C@@H](CCCNC(=N)N)C(=O)N[C@@H](CC(C)C)C(=O)N[C@@H](Cc1c[nH]c4ccccc14)C(=O)N[C@H](C(=O)N[C@@H](CCCCN)C(=O)N[C@@H](CCCCN)C(=O)N[C@@H](CCCCN)C(=O)N[C@@H](CC(C)C)C(=O)N[C@@H](Cc1c[nH]c4ccccc14)C(N)=O)CSSC[C@H](NC(=O)[C@H](CCCCN)NC(=O)[C@H](CCCNC(=N)N)NC(=O)[C@H](CCC(=O)O)NC(=O)[C@H](CO)NC(=O)[C@H](CC(=O)O)NC3=O)C(=O)N2
- IC50 [1]: 0.044 µM
- IC50 [2]: 0.0027 µM
